This is an account of results in patent publication EP4847503A1, “TETRAZOLE COMPOUND, PHARMACEUTICAL COMPOSITION THEREOF AND USE THEREOF” (dated 2026).

Protein sequences, listed by entry. Tags and fused reporters are not part of them.
UniProt P50052, whole entry: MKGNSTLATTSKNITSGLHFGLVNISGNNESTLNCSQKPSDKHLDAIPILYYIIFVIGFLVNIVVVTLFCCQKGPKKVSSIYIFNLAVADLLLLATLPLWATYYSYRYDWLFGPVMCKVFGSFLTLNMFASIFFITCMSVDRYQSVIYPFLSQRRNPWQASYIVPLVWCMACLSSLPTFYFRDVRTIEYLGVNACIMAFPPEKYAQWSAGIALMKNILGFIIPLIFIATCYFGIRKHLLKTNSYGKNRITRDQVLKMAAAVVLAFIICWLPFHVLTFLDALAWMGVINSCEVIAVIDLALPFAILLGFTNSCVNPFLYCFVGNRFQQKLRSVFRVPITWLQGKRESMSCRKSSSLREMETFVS

One assay addresses AT2 receptor (Homo sapiens, UniProt P50052). The assay is described as follows: AT2R Binding assay (Tag-lite HTRF, affinity for AT2 receptor). As to conditions: read-out: AT2R IC50; Tag-lite Angiotensin AT2 labeled Cells, 25 °C, 1 hour. As for the experimental part: Test Example 1 Determination of the affinity of the test compounds for AT2 receptor by AT2R Binding assay
1. Reagent preparation • 1.1 Cell line: Tag-lite Angiotensin AT2 labeled Cells; • 1.2 Assay buffer: 1X TLB (5 mL 5X TLB + 20 mL H2O); 2. Activity assay of the test compounds • 2.1 1X TLB assay buffer, 4X working solutions of the test compounds, and 4X Tag-lite angiotensin receptor red agonist (Cisbio, L0007RED) were prepared; • 2.2 One vial of labeled-AT2R cells was thawed in a water bath at 37 °C until the ice completely melted (1-2 min). The thawed cells were quickly transferred to 5 mL of 1X TLB, mixed gently, and centrifuged at 200 g for 5 min; • 2.3 The supernatant was discarded, and the cells were resuspended and mixed with 1 mL of 1X TLB. Then, 1.7 mL of 1X TLB was added and mixed, and the mixture was kept at room temperature for later use; • 2.4 10 µL of cells were added to a 384-well plate (Greiner, 784075) and centrifuged at 200 g at RT for 3 s; 5 µL of the 4X compound was added to the 384-well plate; 5 µL of the 4X Tag-lite angiotensin receptor red agonist was added to all test wells; • 2.5 The reaction plate was left to stand at room temperature of 25 °C for 1 hour, and then centrifuged at 200 g, RT for 60 s. Data was collected using an Envision HTRF detector. 3. Data analysis • 3.1 Calculation of % inhibition: [formula] • 3.2 Calculation of compound IC50 using GraphPad non-linear fitting formula: Y = Bottom + (Top-Bottom)/(1+10^(∧)((LogIC50-X)*HillSlope)) [formula] • X: log value of compound concentration; Y: % inhibition 4. Experimental results

Assay [1] concerns rat chronic constriction injury of the sciatic nerve model. Kind of assay: Analgesic effect in rat chronic constriction injury of the sciatic nerve model (mechanical allodynia, von Frey filaments). The following applies: 10 mg/kg PO. As for the experimental part:
Test Example 6 Study on the analgesic effect of the compounds of the present invention on inhibiting pain in a rat chronic constriction injury of the sciatic nerve model
(§1) A 5% DMSO + 10% Solutol + 85% Saline solution was used.
Experimental animals: Sprague-Dawley rats, weighing 80-100 g, male, purchased from Beijing Vital River Laboratory Animal Technology Co., Ltd.
• 1) The surgical procedure was performed under aseptic conditions. • 2) Surgical instruments (scissors, forceps, scalpels, surgical cotton, and sutures) were sterilized before surgery. • 3) The animals were anesthetized with Zoletil 50 + xylazine hydrochloride injection (20 mg/kg + 8 mg/kg, intraperitoneal injection). The toes of the animals were pinched to confirm complete anesthesia before surgery. An ophthalmic ointment was applied to the eyes of the animals to prevent corneal drying. • 4) The skin in the surgical area of the left hind plantar surface was disinfected three times with iodophor and 70% ethanol. The surgery was started after the skin dried. • 5) The left sciatic nerve was isolated. Four loose ligatures were tied around the sciatic nerve using 4-0 chromic gut sutures at approximately 7 mm proximal to the bifurcation, with a spacing of about 1 mm between the ligatures. • 6) The wound was sutured. • 7) The surgical instruments were cleaned and sterilized using a hot bead sterilizer. • 8) After surgery, the animals were placed on a heating pad, and 5 mL of normal saline was injected subcutaneously to prevent dehydration. After the animals were fully awake (able to move freely), they were returned to their cages.
1) On days 7 to 9 post-surgery, the animals were placed in the testing environment to habituate for at least 30 minutes per day. 2) On day 10 post-surgery, the baseline measurement of mechanical allodynia (PWT) was performed on all animals.
On day 11 post-surgery, the animals in all groups were weighed and administered according to the grouping information.
The mechanical allodynia test was performed on each animal using testing filaments at 1 h and 2 h after a single dose administration.
• 1) The rats were placed individually in a Plexiglas box with a wire mesh floor to ensure that the paws of the rats could be tested. The rats were allowed to habituate for 15 minutes before the test. • 2) After habituation, the test was performed using testing filaments on the central plantar surface of the left hind paw of the rats. The testing filaments included 8 testing strengths: 3.61 (0.4 g), 3.84 (0.6 g), 4.08 (1 g), 4.31 (2 g), 4.56 (4 g), 4.74 (6 g), 4.93 (8 g), and 5.18 (15 g). During testing, the test filament was pressed vertically against the skin with enough force to bend the filament for 6-8 seconds, with an interval of 5 seconds between each test. During testing, a rapid paw withdrawal by the animal was recorded as a pain response. Paw withdrawal when the test filament was removed from the animal's skin was also recorded as a pain response. If the animal moved or walked around, it was not recorded as a pain response, and the test should be repeated. • 3) During the test, the 4.31 (2 g) filament was used first. […] The maximum strength of the testing filaments was 5.18 (15 g). • 4) The test results were recorded in the table below, where a pain response was recorded as "x" and no pain response was recorded as "o". [formula]
Mechanical allodynia is expressed as the paw withdrawal threshold (PWT) in the rat behavioral test, which is calculated according to the following formula: 50% response threshold (g) = (10^((Xf+kδ)))/10,000 [formula] • Xf = value of the final testing filament used in the test • k = tabular value (Chaplan et al. 1994, page 62) • δ = mean difference (0.224)
Data were analyzed using Prism software (GraphPad Software, Inc.).

Assay [2] has as its system mouse selective nerve injury model. The assay is described as follows: Analgesic effect in mouse selective nerve injury model (mechanical allodynia, von Frey filaments). As to conditions: 10 mg/kg p.o. single dose, 1, 2 and 4 hours after administration; larger AUC = better analgesic effect. As to the method:
Test Example 5 Study on the analgesic effect of the compounds of the present invention on inhibiting pain in a mouse selective nerve injury model
as §1
Experimental animals: C57BL/6 mice, weighing 18-22 g, male, purchased from Beijing Vital River Laboratory Animal Technology Co., Ltd.
• (1) The surgical procedure was performed under aseptic conditions. • (2) Surgical instruments (scissors, forceps, scalpels, surgical cotton, and sutures) were sterilized before surgery. • (3) The animals were anesthetized with Zoletil 50 (50 mg/kg) + xylazine hydrochloride injection (8 mg/kg) (intraperitoneal injection, 2.5 mL/kg). The toes of the animals were pinched to confirm complete anesthesia before surgery; an ophthalmic ointment was applied to the eyes of the animals to prevent corneal drying. • (4) The hair in the surgical area of the animals was shaved, and the skin was disinfected three times with iodophor and 70% ethanol; the surgery was started after the skin dried. • (5) The sciatic nerve and its three distal branches (the tibial, common peroneal, and sural nerves) were exposed. The tibial and common peroneal nerves were transected using ophthalmic scissors, and the sural nerve was spared. • (6) The wound was sutured. • (7) The surgical instruments were cleaned and sterilized using a hot bead sterilizer. • (8) After surgery, the animals were placed on a heating pad, and 1 mL of normal saline was injected subcutaneously to prevent dehydration. After the animals were fully awake (able to move freely), they were returned to their cages.
On days 4-6 post-modeling, the animals were placed in the testing environment for habituation for 30 minutes/day for 3 consecutive days. On day 7 post-modeling, the baseline measurement of mechanical allodynia was performed on the modeled animals.
The mice in each group were given a single dose of the corresponding drug via intraperitoneal or oral administration at 10 mL/kg according to the experimental protocol.
On day 8 post-modeling, the mechanical allodynia test was performed on the left hind paw of the mice at 1, 2, and 4 hours after administration.
The mice were placed individually in a Plexiglas box with a wire mesh floor to ensure that the paws of the mice could be tested. The mice were allowed to habituate for 15 minutes before the test.
After habituation, the test was performed using testing filaments on the central plantar surface of the left hind paw of the mice. The testing filaments included 8 testing strengths: 2.36 (0.02 g), 2.44 (0.04 g), 2.83 (0.07 g), 3.22 (0.16 g), 3.61 (0.4 g), 3.84 (0.6 g), 4.08 (1 g), and 4.17 (1.4 g). […] During testing, a rapid paw withdrawal by the animal was recorded as a pain response. Paw withdrawal when the test filament was removed from the animal's skin was also recorded as a pain response. If the animal moved or walked around, it was not recorded as a pain response, and the test should be repeated. […]
Mechanical allodynia is expressed as the paw withdrawal threshold (PWT) in the mouse behavioral test, which is calculated according to the following formula: • 50% response threshold (g)= (10^(Xf+kδ)/10,000 • Xf=value of the final testing filament used in the test • k = tabular value (Chaplan et al. 1994, page 62) • δ = mean difference
Data were analyzed using one-way or two-way analysis of variance (ANOVA) followed by Dunnett's multiple comparisons test in Prism software (GraphPad Software, Inc.). […]

`CC(C)Cc1cc(N2CCN(Cc3cccnn3)[C@@H](C)C2)c(-c2nn[nH]n2)c(N2CCC(F)(F)C2)c1`: on AT2 receptor, the IC50 came out at 3.08 nM. For the same compound, the PWT amounted to 2.82 g in assay [1] (testing time point 0 h), 5.88 g in assay [1] (testing time point 1 h) and 7.02 g in assay [1] (testing time point 2 h).

As to `CC(C)Cc1cc(Cn2cc(C(F)(F)F)cn2)c(-c2nn[nH]n2)c(N2CCN(Cc3cccnn3)[C@@H](C)C2)c1`, the IC50 on AT2 receptor was 1.07 nM. Moreover, the “Mean AUC value (AUC0-4h of analgesic effect, paw withdrawal threshold)” value (shortened to “Mean AUC value”) in assay [2] came to 2.856.

`CC(C)Cc1cc(CN2CCC(F)(F)C2)c(-c2nn[nH]n2)c(N2CCN(Cc3cccnn3)[C@@H](C)C2)c1`: the IC50 on AT2 receptor was 6.75 nM. In addition, the “Mean AUC value” value in assay [2] came out at 2.280.

As to `CC(C)Cc1cc(NC2CCCC2O)c(-c2nn[nH]n2)c(N2CCN(Cc3cccnn3)[C@@H](C)C2)c1` (stereo partly shown), the IC50 on AT2 receptor was determined as 11 nM. Moreover, in assay [2], the “Mean AUC value” value was determined as 2.480.
